Source: ChEMBL document CHEMBL1131217, “Conformationally defined retinoic acid analogues. 4. Potential new agents for acute promyelocytic and juvenile myelomonocytic leukemias” (J Med Chem, 1998)

Amino acid sequences for entries named in this document (tags omitted).
UniProt P11416, whole entry: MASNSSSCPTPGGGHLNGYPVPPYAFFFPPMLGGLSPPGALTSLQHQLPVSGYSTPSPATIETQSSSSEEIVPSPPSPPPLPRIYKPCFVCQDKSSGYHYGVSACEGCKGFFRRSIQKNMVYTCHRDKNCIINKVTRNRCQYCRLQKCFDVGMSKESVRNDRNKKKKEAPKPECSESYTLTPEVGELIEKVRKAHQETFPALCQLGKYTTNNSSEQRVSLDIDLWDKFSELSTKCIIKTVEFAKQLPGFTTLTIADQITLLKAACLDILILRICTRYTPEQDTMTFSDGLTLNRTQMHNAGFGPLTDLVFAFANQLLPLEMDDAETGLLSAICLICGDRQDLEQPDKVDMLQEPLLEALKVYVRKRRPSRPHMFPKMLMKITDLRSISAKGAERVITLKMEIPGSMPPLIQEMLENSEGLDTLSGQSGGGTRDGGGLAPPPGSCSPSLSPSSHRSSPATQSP

Molecular target: Retinoic acid receptor alpha (Mus musculus, UniProt P11416)
Assay: Transcriptional activation in CV-1 cells expressing retinoid A receptor RAR alpha
Assay type: cell-based
Method in brief: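 CV-1 cells were transiently transfected with a plasmid for the relevant RAR subtype plus a (TREpal)2-tk-CAT reporter. Retinoids were tested over 1–1000 nM. CAT activity was the read-out. EC50 for half-maximal activation was obtained by Probit analysis of the dose–response curve.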

Compound | EC50
CCC1=C(C(C)C)/C(=C/C(C)=C/C=C/C(C)=C/C(=O)O)CCC1 | 33 nM
CCC1=C(C(C)C)/C(=C/C(C)=C/C=C/C(C)=C\C(=O)O)CCC1 | 51 nM
